In patent US8653263B2 (Janssen Pharmaceutica, priority 2009, dated 2014) one finds Ki data, which are given here for seven compounds.

Protein sequences, listed by entry. Tags and fused reporters are not part of them.
UniProt O43614, whole entry: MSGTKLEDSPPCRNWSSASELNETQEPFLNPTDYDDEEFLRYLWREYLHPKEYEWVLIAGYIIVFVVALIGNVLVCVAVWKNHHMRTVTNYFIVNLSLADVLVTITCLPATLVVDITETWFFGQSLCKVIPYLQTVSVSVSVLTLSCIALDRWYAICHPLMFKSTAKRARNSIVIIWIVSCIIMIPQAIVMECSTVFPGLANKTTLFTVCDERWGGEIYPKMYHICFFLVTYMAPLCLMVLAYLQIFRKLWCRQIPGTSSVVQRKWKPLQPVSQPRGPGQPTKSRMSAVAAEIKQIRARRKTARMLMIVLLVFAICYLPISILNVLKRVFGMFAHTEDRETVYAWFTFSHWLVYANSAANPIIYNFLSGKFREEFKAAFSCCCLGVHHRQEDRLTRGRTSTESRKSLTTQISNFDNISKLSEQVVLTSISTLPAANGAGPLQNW

Molecules are shown by their SMILES. pKi: −log10 of the molar value.

In this test the target is human orexin-2 receptor (Homo sapiens (Human), UniProt O43614). The test can be described thus: Human orexin 2 receptor radioligand binding ([3H]-EMPA competition). To be noted: read-out: OR 2 Ki; HEK293 cells stably expressing human orexin-2 receptor; [3H]-EMPA 5 nM final; apparent Ki=IC50/(1+C/Kd), Kd=2 nM.

One may read the pKi as the Ki on a negative log10 scale, so that one unit is a factor of ten. Turning to `COc1ccccc1C(=O)N1CC2CN(c3nccc(C)n3)CC2C1` (stereo not shown) [Example 200, (2-Methoxy-phenyl)-[5-(4-methyl-pyrimidin-2-yl)-hexahydro-pyrrolo[3,4-c]pyrrol-2-yl]-methanone], the pKi was 5.00.
To `Cc1nc(N2CC3CN(C(=O)c4cc(F)ccc4-c4ncccn4)CC3C2)cc(=O)[nH]1` (stereo not shown) [Example 256, 6-{5-[(5-Fluoro-2-pyrimidin-2-ylphenyl)carbonyl]hexahydropyrrolo[3,4-c]pyrrol-2(1H)-yl}-2-methylpyrimidin-4(3H)-one] belongs 5.00; to `Cc1cc(C)nc(N2CC3CN(C(=O)c4ccccc4-c4ncnn4C)CC3C2)n1` (stereo not shown) [Example 307, 2-(4,6-Dimethylpyrimidin-2-yl)-5-{[2-(1-methyl-1H-1,2,4-triazol-5-yl)phenyl]carbonyl}octahydropyrrolo[3,4-c]pyrrole], 5.00; to `Cc1cc(C)nc(N2CC3CN(C(=O)c4cnccc4-n4ccnn4)CC3C2)n1` (stereo not shown) [Example 329, [5-(4,6-Dimethyl-pyrimidin-2-yl)-hexahydro-pyrrolo[3,4-c]pyrrol-2-yl]-(4-[1,2,3]triazol-1-yl-pyridin-3-yl)-methanone], 5.00.
For `COc1cc(Br)c(C(=O)N2CC3CN(c4nc(C)cc(C)n4)CC3C2)cc1OC` (stereo not shown) [Example 333, (2-Bromo-4,5-dimethoxy-phenyl)-[5-(4,6-dimethyl-pyrimidin-2-yl)-hexahydro-pyrrolo[3,4-c]pyrrol-2-yl]-methanone], the pKi was 5.00.
To `COc1cc(C(=O)N2CC3CN(c4nc(C)cc(C)n4)CC3C2)c(-n2ccnn2)cc1OC` (stereo not shown) [Example 341, (4,5-Dimethoxy-2-[1,2,3]triazol-1-yl-phenyl)-[5-(4,6-dimethyl-pyrimidin-2-yl)-hexahydro-pyrrolo[3,4-c]pyrrol-2-yl]-methanone] belongs 5.00; to `O=S(=O)(c1ccccc1-c1ccccc1)N1CC2CN(c3ccc(C(F)(F)F)cn3)CC2C1` (stereo not shown) [Example 356, 2-([1,1′-Biphenyl]-2-ylsulfonyl)-5-(5-(trifluoromethyl)pyridin-2-yl)octahydropyrrolo[3,4-c]pyrrole], 5.00.
